Ab-14 heavy chain CDR variants: yeast mating affinities

Source: Li et al. 2023 (doi:10.1038/s41467-023-39022-2), MIT Lincoln Laboratory and A-Alpha Bio; data file from the FLAb repository.

Target peptide (SARS-CoV-2 spike, HR2 region): PDVDLGDISGINAS

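The starting antibody came from a phage panning campaign against this peptide. Designed CDR sequences, proposed from the first random library and measured here. Group labels follow the data file (Ctrl: baseline library sampled from a position-specific scoring matrix, with some repeated check sequences; Rand: our label for a block that the file lists under HC and that is probably the random mutants of the ten best first-round binders; En: ensemble of fine-tuned language models; GP: Gaussian process model; GPLM: also part of the Gaussian process libraries; HC: hill climbing; Gen: genetic algorithm; Gibbs: Gibbs sampling; a sequence that several methods proposed may carry one label only). Affinity was read by AlphaSeq, a pooled yeast mating assay with surface-displayed partners. Mating (16 h, 30 °C) was followed by selection of diploids and sequencing of their barcodes. A regression on co-assayed BCL2-family reference pairs converts the normalised counts of each replicate to an apparent Kd. There are six technical replicates.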

Ab-14 is the parent antibody, in scFv form: VH, then the linker GGGGSGGGGSGGGGS, then VL. The light chain is unchanged in all variants.
VH: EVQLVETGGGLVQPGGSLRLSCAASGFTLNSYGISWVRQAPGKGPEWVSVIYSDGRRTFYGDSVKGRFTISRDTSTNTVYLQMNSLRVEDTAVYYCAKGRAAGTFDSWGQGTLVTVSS
VL: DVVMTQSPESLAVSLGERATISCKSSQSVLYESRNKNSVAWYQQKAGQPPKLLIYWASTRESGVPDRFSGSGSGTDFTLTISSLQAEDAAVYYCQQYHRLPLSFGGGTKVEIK

The parent's heavy chain CDRs are GFTLNSYGIS, VIYSDGRRTFYGDSVK, GRAAGTFDS; each variant's own CDRs replace them letter for letter. Values are log10 of the apparent Kd in nM; lower means stronger binding. A mean of the replicates is given; it leaves out those without a signal. Where no diploid with the target was found in any replicate, the entry reads "nd": below detection, most likely a poor binder, though not proof of it. Nonspecific signal, from three strains lacking the peptide, appeared in 1% of pairings of all heavy chain designs, centred on 2.08 (5% of these signals below 0.84); values are not corrected for it. The control count says in how many pairings with the empty strains this scFv gave a signal.

mean log10 Kd (nM)	replicates with signal	empty controls	CDR-H1	CDR-H2	CDR-H3	group
0.58	6/6	0/18	GFDLNEYGIS	VIYADGRRTAYIDSVK	GEAAGTFDV	En_HC
0.36	6/6	0/18	GFDLNSYGIS	VIYSDGRRTFYQDSVK	GRAAGTFDS	Ctrl
2.48	2/6	0/18	GFSLNSYGIS	VIYSDGRRTFYIDSVK	GMAAGTFDS	GPLM_Gen
nd	0/6	0/18	GITINSYGIS	VIYSDGRRTFYGDSVK	GRNMGGFDE	Ctrl
0.71	6/6	0/18	GFSLNQYGIS	VIYADGRRTFYGDSVK	GRAAGTFDS	GP_HC
-0.21	6/6	0/18	GFDINEYGIS	VIYADGMRTAYADSVK	GNQAGTFDV	En_Gen
0.03	6/6	0/18	GFSLNSYGIS	VIYSDGRRTFYIDSVK	GNAAGTFDS	GPLM_Gen
-0.33	6/6	0/18	GFSLDEYGIS	VIYADGVRTFYADDVK	GNVAGTFDV	En_HC
nd	0/6	0/18	GFDLNSYGIS	VIYSDIRRTFYGDSVK	GRAAGWFNS	Rand
0.35	6/6	0/18	GFSLNEYGIS	VIYSDGRRTFYGDQVK	GRNAGTFDS	GP_Gen
-0.22	6/6	0/18	GFDLDEYGIS	VIYADGVRTAYADSVK	GEVAGTFDQ	En_Gen
-0.59	6/6	0/18	GFSLDEYGIS	VIYADGMRTAYSDSVK	GNVAGTFDV	En_Gen
nd	0/6	0/18	GYDLEDYGIS	VIYADGVRQFYHDNFK	GQLAGTFLL	En_Gibbs
-0.51	6/6	0/18	GFDLNEYGIS	VIYADGRRTFYSDSVK	GEAAGTFDA	En_HC
0.97	6/6	0/18	GFTLNEYGIS	VIYSDGLRTFYTDSVK	GRFAGTFDS	GPLM_HC
1.29	6/6	0/18	GFTLNSYGIS	VIYSDGRRTFYDDSVK	GQTAGTFDS	GPLM_Gen
0.45	6/6	0/18	GFELNSYGIS	VIYSDGRRTFYGDDVK	GVTAGTFDS	GPLM_Gibbs
nd	0/6	0/18	KENIDEYGIS	VIYADGRRTAYTQDVK	GQAGGIIDV	En_Gibbs
nd	0/6	0/18	GFDVNEYGIS	VIYADGTRTAYANTVK	GKVVGVFVD	En_Gibbs
-0.44	6/6	0/18	GFDLNEYGIS	VIYADGRRTAYTDSVK	GQNAGTFDM	En_HC
nd	0/6	0/18	GKSLDEYGIS	VIYADGKRTMYANDVK	GHVGYIFMM	En_Gibbs
0.00	6/6	1/18	GFDLNNYGIS	VIYADGSRVEYENKFK	GDVAGTFDS	En_Gibbs
nd	0/6	0/18	GFNLNSYGIS	VIYADGRRTFYVDSVK	GRAAGTNKS	Rand
-1.29	4/6	0/18	GFDLNSYGIS	VIYSDGRRTFYVDSVK	GQAAGTFDA	GPLM_Gibbs
-0.41	6/6	0/18	GFDLDEYGIS	VIYADGRRTAYADSVK	GQNAGTFDI	En_Gen
2.38	6/6	0/18	GFNLNSYGIS	VIYSDGRRTFYIDDVK	GQAAGTFDK	GP_Gibbs
1.23	5/6	1/18	GFTLNEYGIS	VIYSDGRRTFYGDAVK	GRAAVTFDK	GP_HC
-1.11	5/6	0/18	GFDLNEYGIS	VIYADGRRKAYADSVK	GQNAGTFDV	En_Gen
2.23	1/6	0/18	GFTLNDYGIS	VIYSDGKRTFYGGSVK	GRAAGTFDS	Ctrl
-0.42	6/6	0/18	GFSLNSYGIS	VIYADGRRTFYGDSVK	GRAAGTFDK	GPLM_Gen
-0.23	6/6	0/18	GFDLNEYGIS	VIYADGRRTAYIDSVK	GHAAGTFDV	En_HC
0.92	4/6	0/18	GFTLAEYGIS	VIYSDGRRTFYGDSVK	GRAAVTFDQ	Rand
-0.49	6/6	0/18	GFDLNEYGIS	VIYADGKRTYYADSVK	GNVAGTFDM	En_Gen
1.55	4/6	1/18	SFELNSYGIS	VIYSDGRRTFYTDSVK	GQTAGTFDS	GP_Gibbs
0.14	1/6	0/18	GFDINEYGIS	VIYADGRRTQYADSVK	GENAGTFDS	En_HC
-0.59	6/6	0/18	GFNLNEYGIS	VIYADGRRTAYADSVK	GGNAGTFDV	En_HC
2.71	1/6	2/18	GYDIEQYGIS	VIYADGMRTVYHDSVK	GHEGDTFYV	En_Gibbs
-0.29	6/6	0/18	GFDLESYGIS	VIYADGQRTAYADSVK	GNVAGTFDV	En_HC
0.07	6/6	0/18	GFDLDEYGIS	VIYADGSRTAYADSVK	GENAGTFDL	En_Gen
-0.48	6/6	1/18	GFDLNEYGIS	VIYADGQRTAYADDVK	GNQAGTFDI	En_Gen
2.19	6/6	1/18	MFDLNTYGIS	VIYSDGRRTFYHDSVK	GEAAGTFDS	GP_Gibbs
-0.13	6/6	1/18	GFDLNEYGIS	VIYADGRRTFYADNVK	GEVAGTFDS	En_HC
nd	0/6	0/18	GKDLEEYGIS	VIYADGHRAAYIDSVK	GINMDVMTV	En_Gibbs
0.18	6/6	0/18	GFSLNSYGIS	VIYSDGRRTFYADNVK	GNAAGTFDT	GP_Gibbs
nd	0/6	0/18	KFDLEAYGIS	VIYADGVRTNYVDKVK	GDTGGMFDM	En_Gibbs
0.07	6/6	0/18	GFDLNAYGIS	VIYSDGRRTFYGDSVK	GREAGTFDS	GPLM_Gibbs
0.07	6/6	0/18	GFDLNEYGIS	VIYADGMRTYYADSVK	GEVAGTFDT	En_Gen
0.36	12/12	0/36	GFTLNEYGIS	VIYSDGRRTFYGDSVK	GRFAGTFDS	Ctrl+GPLM_HC
nd	0/6	0/18	GFDLNEYGIS	VIYADGKRQYYADSVK	GNVAGTFDV	En_Gen
nd	0/6	2/18	GFDLEEYGVS	VIYADGNRSQYIDNVK	GIIGDNVSI	En_Gibbs
-0.90	6/6	0/18	GFDIDEYGIS	VIYADGMRTAYTDSVK	GEAAGTFDA	En_HC
0.79	6/6	0/18	GFWLNEYGIS	VIYSDGRRTMYGDSVK	GRTAGTFDS	GP_Gen
1.10	5/6	0/18	GFVLNDYGIS	VIYSDGRRTFYADAVK	GRTAGTFDS	GP_Gibbs
-0.62	6/6	0/18	GFDLDEYGIS	VIYADGRRTAYADSVK	GQNAGTFDV	En_Gen
0.18	6/6	1/18	GFELNSYGIS	VIYSDGRRTFYADQVK	GTTAGTFDS	GP_Gibbs
0.86	6/6	1/18	GFNLDEYGIS	VIYADGRRTAYQDSVK	GEGAGTFDF	En_HC
nd	0/6	0/18	GFDLNEYGIS	VIYADGRRTAYTDSVK	GEFAGTFDG	En_HC
2.48	2/6	1/18	GFSLGEYGIS	VIYADGKRDVYADSVK	GSESGWFDI	En_Gibbs
1.63	6/6	0/18	HFSLNNYGIS	VIYSDGRRTFYGDSVK	GRTAGTFDS	GPLM_Gen
-0.26	6/6	0/18	GFDLNEYGIS	VIYADGKRTAYIDSVK	GEVAGTFDA	En_HC
0.00	6/6	0/18	GFDLNEYGIS	VIYADGRRTAYTDSVK	GEHAGTFDV	En_HC
1.80	3/6	0/18	GFTLNSYGIS	VIYSDGRRTFYGDSVK	GRAAGQFDT	Ctrl
-0.68	6/6	0/18	GFDLESYGIS	VIYADGSRTAYADSVK	GNVAGTFDE	En_HC
1.33	6/6	0/18	GLTLNSYGIS	VIYADGRRTFYGDSVK	GRAAGTFDM	Ctrl
-1.48	6/6	0/18	GFDLDEYGIS	VIYADGVRTAYADSVK	GNVAGTFDV	En_Gen
-0.06	6/6	0/18	GFELNSYGIS	VIYSDGRRTFYGDSVK	GTTAGTFDQ	GP_Gibbs
0.36	6/6	1/18	GFELQEYGIS	VIYADGARTAYVDNVK	GDAVGIFHV	En_Gibbs
0.53	3/6	0/18	GFSLNSYGIS	VIYSDGRRTFYGDRVK	GKTAGTFDS	GP_Gen
nd	0/6	0/18	GFELNSYGIS	VIYSDGRRTFYGDSVK	SRAAGTFNS	Ctrl

Excerpt, the final 7 entries:

CDR-H1	CDR-H2	CDR-H3	group	mean log10 Kd (nM)	replicates with signal	empty controls
GFDLESYGIS	VIYADGSRTAYADSVK	GNVAGTFDE	En_HC	-0.68	6/6	0/18
GLTLNSYGIS	VIYADGRRTFYGDSVK	GRAAGTFDM	Ctrl	1.33	6/6	0/18
GFDLDEYGIS	VIYADGVRTAYADSVK	GNVAGTFDV	En_Gen	-1.48	6/6	0/18
GFELNSYGIS	VIYSDGRRTFYGDSVK	GTTAGTFDQ	GP_Gibbs	-0.06	6/6	0/18
GFELQEYGIS	VIYADGARTAYVDNVK	GDAVGIFHV	En_Gibbs	0.36	6/6	1/18
GFSLNSYGIS	VIYSDGRRTFYGDRVK	GKTAGTFDS	GP_Gen	0.53	3/6	0/18
GFELNSYGIS	VIYSDGRRTFYGDSVK	SRAAGTFNS	Ctrl	nd	0/6	0/18

The parent sequence was in this pool as ten entries: three were never detected, three once, and four in most replicates, with averages from 0.34 to 2.37. The authors averaged sequences with at least three values out of six and counted those with two or fewer as poor binders. The range of this assay differs from that of the first round, and the authors advise against merging the two. A sequence that the file lists under several names has all its replicates pooled.